Ab-95 light chain CDR variants: yeast mating affinities

The measurements come from Engelhart et al. 2022 (doi:10.1038/s41597-022-01779-4) through the FLAb antibody collection.

The target is the same throughout: PDVDLGDISGINAS, from the HR2 region of SARS-CoV-2 spike.

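The parent was found by panning a naive human phage display library on the peptide. AAYL52 was designed without a model: most single CDR substitutions and a random sample of double and triple ones. The assay is AlphaSeq: two haploid yeast populations carry antibody and antigen on their surface. The frequency of each diploid, read from paired DNA barcodes, reflects how well the two displayed proteins bind. A regression on co-assayed BCL2-family reference pairs converts the normalised counts of each replicate to an apparent Kd. The assay was run in three technical replicates.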

Ab-95 is the parent antibody, in scFv form: VH, then three GGGGS repeats, then VL. The heavy chain is unchanged in all variants.
VH: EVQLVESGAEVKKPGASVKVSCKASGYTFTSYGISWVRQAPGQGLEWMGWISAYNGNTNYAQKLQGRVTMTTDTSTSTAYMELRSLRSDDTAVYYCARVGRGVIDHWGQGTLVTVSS
VL: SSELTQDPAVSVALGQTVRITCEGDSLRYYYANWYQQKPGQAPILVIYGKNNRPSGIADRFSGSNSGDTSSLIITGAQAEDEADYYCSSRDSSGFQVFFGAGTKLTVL

Variants are written as CDR1, CDR2 and CDR3 of the light chain (limits as in the source). Parent: EGDSLRYYYAN, GKNNRPS, SSRDSSGFQVF. The read-out is the apparent dissociation constant on a log10 scale (nM): the lower, the stronger. A mean of the replicates is given; it leaves out those without a signal. A pair that was not seen in any replicate is written "not detected"; this usually means weak binding, but a binder can also be missed.

CDR-L1,CDR-L2,CDR-L3,"log10 Kd (nM), mean",detected
EGDSLRYYYAT,GKNNLPS,SSRDSSMFQVF,not detected,0/3
EGDSLRYYYAN,GKNNRPS,GSRDSSGHQVF,3.44,1/3
VGDSARYYYAN,GKNNRPS,SSRDMSGFQVF,2.77,3/3
EGDSLHHYYAN,GKNNRPS,SKRDSSGFQVF,2.36,3/3
EGDSLRYYYAN,GKNNRPS,SSGDSSNFQVF,4.49,2/3
EGDSLRYYAAN,FKNNAPS,SSRDSSGFQVF,3.53,1/3
EGDSKRYQYAN,GKNNIPS,SSRDSSGFQVF,3.37,3/3
EGDSLRYYYAD,GKNNRPS,QSRDSSGFQAF,4.74,2/3
EGDSLRYQYAN,GKNNRPS,SSSDSSGGQVF,0.59,3/3
EGDSLRYYYAN,GGNNRPS,SSRDQSGFQVF,1.37,3/3
EGDSLRYYYAM,GKNNRPS,SPRDSSSFQVF,4.55,1/3
EGDSLRYNYAN,GKNNRPV,SSRDSSGFQVV,0.84,3/3
EGDSLRYYYAC,YANNRPS,SSRDSSGFQVF,4.19,2/3
EGDSLRYYYAN,GKNNVTS,SSRDSSGFQVF,2.97,3/3
LGDSLRYYYAN,GKNNRMS,SSDDSSGFQVF,3.31,2/3
HGDSLRYYYAN,GKNNRPS,SSVDSSGPQVF,2.31,3/3
EGDSLGYYYAN,GDNNRAS,SSRDSSGFQVF,1.17,3/3
EGDSLMYYYAN,GKTNRPS,SSRDSSFFQVF,3.59,2/3
EGDSLRYNYAN,GKNNRPS,SSRDSSPFQVF,0.68,3/3
EGVSQRYYYAN,GKNNRPS,STRDSSGFQVF,2.89,3/3
EGDSYRYYYAN,GKNNGPS,SSRDSSMFQVF,5.11,2/3
ESDPLRYYYAN,GKNNRPS,SSRDSSGFSVF,not detected,0/3
PGDSLRYYYAN,GKGNRPS,SSRDTSGFQVF,not detected,0/3
EGDSLWYYYAG,GKNDRPS,SSRDSSGFQVF,5.05,3/3

The remaining entries, values ahead:

"log10 Kd (nM), mean",detected,CDR-L1,CDR-L2,CDR-L3
2.62,3/3,QGDSLRYYYAN,GKNNRPS,SSRDSSNFQVF
3.20,2/3,EGDSLRYYYAN,GKNYRPS,SMRDSSGCQVF
2.30,3/3,EGDSLRYYYAN,GKNNRPS,SSRISTGWQVF
4.25,1/3,EGDELRYYYAN,GKNNRPS,SSRDSSEFQVF
4.35,3/3,EMDSLRAYYAN,GKNNRPS,SSRDSSQFQVF
3.88,3/3,EGDSLRYYYAN,GKNNEES,SSRDSSGFQVF
4.10,1/3,EGDSLRYYYAN,PKNNRES,SSRDSSGFQVF
3.42,1/3,EGDSLFYYYAN,CKNNRPS,SSRDSSGWQVF
not detected,0/3,EKDSLRYYYAN,GKNNDPS,SMRDSSGFQVF
4.00,1/3,EGDSLRYYYAR,GKNNRPS,SIRDMSGFQVF
4.21,2/3,EGDLLRYYYAN,GKNNRPS,SSRDSSGSIVF
4.30,1/3,EGDVLRYYYAN,GKNNRPS,PSRDSSGFQVF
3.84,3/3,EGDSSRSYYAN,GENNRPS,SSRDSSGFQVF
3.19,1/3,EGDSLLYYYAN,GKNNRPS,SSRDSSSFQTF
5.19,2/3,EGDSLRYYYAR,GKNQRPS,SSRDSSGFQEF
4.84,3/3,EGDSLRYIYAA,GKNNRPS,YSRDSSGFQVF
3.33,2/3,FGDSLRYYYAN,GKNNRPS,SSRRSSGFNVF
1.03,3/3,EGDSLRYQYAN,GKNNRPS,SSRDDSRFQVF
2.96,1/3,EGDSLRYYYAN,GKNNRQS,SSCDSSGFQKF
1.58,3/3,EGDSLRVYYAN,GKANRPS,SSRDSSGFQVF
not detected,0/3,WGDSLRYYYAN,YKNNRPS,SSRDSSTFQVF
3.53,1/3,EEDRLRYYYAN,YKNNRPS,SSRDSSGFQVF
3.82,1/3,EGDSPRYYYAN,WKNNRPS,SSRDSSGFQTF
2.14,3/3,EGDSLRYYYAN,GKNNRPS,SSRDSSDFQCF
2.46,3/3,EGESLRYYYAN,GRNNRPS,SSRDHSGFQVF

For reference, the parent read 2.31 as the reference entry and 2.25 as a member of this library. Background: pairings of library AAYL52 with three empty control strains gave a value in 28% of cases (median 3.91, 5th percentile 2.90). Values in that range, when seen in few replicates, are hard to tell from nonspecific mating.